Test results published in patent US20260001862A1, “QUINOXALINEDIONE AND PYRIDO[2,3-B]PYRAZINE-2,3-DIONE B CELL LYMPHOMA 6 (BCL6) DEGRADERS AND USES THEREOF” (DANA-FARBER CANCER INSTITUTE, INC., priority 2022, published 2026).

Target: Endogenous BCL6 (Homo sapiens, UniProt P41182)
Experiment: HiBiT cellular degradation assay in SU-DHL-4 cells
Conditions: read-out: HiBiT SU-DHL-4 DC50, 24 hours of compound treatment, concentration to reach 50% degradation
Procedure: DC50 (concentration to reach 50% degradation) values were determined from a cellular degradation assay (HiBiT, Promega™) in Su-DHL-4 cells (Table 1). Endogenous BCL6 was tagged with the 11-amino acid SmBiT through CRISPR/Cas9 gene editing and single cell clone selection. After 24 hours of compound treatment, cells were lysed and incubated with LgBiT protein to reconstitute intact nanoluciferase. Substrate was then added and relative luciferase units were measured. Degradation levels for each treatment were taken as a percentage compared to the control, 100% DMSO (Prism).

DC50: 41 nM
SMILES: C[C@@H]1C[C@H](C)CN(c2ncc(Cl)c(Nc3ccc4c(c3)n(CC[C@H](C)O)c(=O)c(=O)n4C)n2)C1
